{"sequences": {"note": "The chains behind the UniProt entries cited, without tags or fusion partners. Where a name states a change or a piece, a line headed by the entry shows the natural chain unless it says otherwise.", "UniProt P41146": "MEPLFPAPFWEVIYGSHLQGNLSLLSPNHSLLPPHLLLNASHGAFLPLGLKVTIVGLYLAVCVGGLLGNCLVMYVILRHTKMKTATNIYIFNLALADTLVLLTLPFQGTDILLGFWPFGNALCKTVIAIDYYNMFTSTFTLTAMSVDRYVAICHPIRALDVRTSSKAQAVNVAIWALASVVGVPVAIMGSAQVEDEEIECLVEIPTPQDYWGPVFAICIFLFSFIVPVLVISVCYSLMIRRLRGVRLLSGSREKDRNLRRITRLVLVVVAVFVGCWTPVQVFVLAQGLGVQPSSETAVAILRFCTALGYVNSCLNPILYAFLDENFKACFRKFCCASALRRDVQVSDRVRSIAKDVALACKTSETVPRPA"}, "source": "patent US7678834B2", "about": "“Substituted 4-aminocyclohexanol compounds” (dated 2010)", "data": [{"target": "ORL1 receptor (Homo sapiens, UniProt P41146)", "assay": "ORL1 receptor binding assay with 3H-nociceptin/orphanin FQ, membranes of recombinant CHO-ORL1 cells", "conditions": "read-out: Ki value, 3H-nociceptin/orphanin FQ 0.5 nM", "units": {"Ki": "nM"}, "values": [{"molecule": "CN(C)C1(Cc2ccccc2)CCC(O)(c2cc3ccccc3n2C)CC1", "note": "(centres unmarked)", "Ki": 130}, {"molecule": "CN(C)C1(Cc2ccccc2)CCC(O)(Cc2cccc(F)c2)CC1", "note": "(centres unmarked)", "Ki": 900}, {"molecule": "OC1(CCc2ccccc2)CCC(Cc2ccccc2)(N2CCCC2)CC1", "note": "(centres unmarked)", "Ki": 40}, {"molecule": "CN(C)C1(Cc2cccc(F)c2)CCC(O)(CCc2ccccc2)CC1", "note": "(centres unmarked)", "Ki": 30}, {"molecule": "CN(C)C1(Cc2ccccc2)CCC(O)(CCc2ccccc2)CC1", "note": "(centres unmarked)", "Ki": 20}, {"molecule": "CN(C)C1(Cc2ccccc2)CCC(O)(Cc2ccc(F)cc2)CC1", "note": "(centres unmarked)", "Ki": 400}, {"molecule": "CN(C)C1(Cc2ccccc2)CCC(O)(c2csc3ccccc23)CC1", "note": "(centres unmarked)", "Ki": 150}, {"molecule": "CN(C)C1(Cc2ccccc2)CCC(O)(c2cc3ccccc3o2)CC1", "note": "(centres unmarked)", "Ki": 150}, {"molecule": "CN(C)C1(Cc2ccccc2)CCC(O)(c2cc3ccccc3s2)CC1", "note": "(centres unmarked)", "Ki": 45}, {"molecule": "CN(C)C1(Cc2cccc(F)c2)CCC(O)(Cc2ccccc2)CC1", "note": "(centres unmarked)", "Ki": 890}, {"molecule": "CN(C)C1(Cc2ccccc2F)CCC(O)(CCc2ccccc2)CC1", "note": "(centres unmarked)", "Ki": 50}, {"molecule": "CN(C)C1(Cc2ccccc2)CCC(O)(CCc2ccccc2F)CC1", "note": "(centres unmarked)", "Ki": 30}, {"molecule": "CN(C)C1(Cc2ccccc2)CCC(O)(CCc2cccc(F)c2)CC1", "note": "(centres unmarked)", "Ki": 20}, {"molecule": "CN(C)C1(Cc2ccc(F)cc2)CCC(O)(CCc2ccccc2)CC1", "note": "(centres unmarked)", "Ki": 200}, {"molecule": "4-(Allylmethylamino)-4-benzyl-1-phenethylcyclohexanol hydrochloride", "Ki": 60}, {"molecule": "CN(C)C1(Cc2ccccc2)CCC(O)(CCc2ccc(F)cc2)CC1", "note": "(centres unmarked)", "Ki": 40}]}, {"system": "NMRI mice", "assay": "Analgesia testing in the tail flick test on the mouse", "conditions": "dosage 10 mg/kg intravenously", "values": [{"molecule": "4-(Allylmethylamino)-4-benzyl-1-phenethylcyclohexanol hydrochloride", "% MPE": "97 (10) %"}]}]}
